We go through 1 substance from paper PMC6251811 (Acta Pharmaceutica Sinica. B, 2018).

Assay type in all cases: cell-based, human
Data set [1] deals with type-I interferon signaling pathway. The experiment in a line: SEAP reporter gene assay in HEK-Blue IFNα/β cells stimulated with IFN-α2a. The note with it: IFN-α2a titration 0.128 to 10,000 IU/mL.
Data set [2] has as its system SH-SY5Y cells. The experiment in a line: CCK8 cytotoxicity assay in SH-SY5Y cells. The conditions noted are these: IFN-α2a up to 800 IU/mL (data not shown). (In general: Formazan colour is commonly taken as a measure of viable cells.)
Data set [3] concerns IRF7 mRNA. The experiment in a line: IRF7 mRNA quantitative PCR in SH-SY5Y cells. The note with it: IFN-α2a treatment for 1 h.
Data set [4] deals with IRF7 mRNA. Put plainly: IRF7 mRNA quantitative PCR in HEK-Blue IFNα/β cells. The conditions noted are these: IFN-α2a treatment for 1 h.
In data set [5] the test system is IRF3 mRNA. Put plainly: IRF3 mRNA quantitative PCR in HEK cells. The conditions noted are these: IFN-α2a treatment for 1 h.
Data set [6] concerns IRF3 mRNA. Put plainly: IRF3 mRNA quantitative PCR in SH-SY5Y cells. The conditions noted are these: IFN-α2a treatment for 1 h.

As for “IFN-α2a: Recombinant human IFN-α2a produced by Escherichia coli expressing Cys24-Glu188; stimulus of the assays”, the “EC80 of IFN-α2a” value in data set [1] is listed as 150 IU/mL. Also, the “effect on cell viability” value in data set [2] is on record as “did not affect cell viability”. The entries for the “IRF7 mRNA transcription level compared to untreated controls” value in data set [3] and in data set [4] were 2.69±0.26 folds and 2.09±0.16 folds, respectively. In addition, the “IRF3 mRNA level” value in data set [5] came to 1.25±0.15 folds; in data set [6], 1.03±0.04 folds.
